Reference: US7214509B2, “Methods and compositions for degradation of nitroaromatic and nitramine pollutants” (dated 2007)
Only a part of the results on these compounds is given; other tests are left out.

How the values were obtained:
[1] = test system: Methylobacterium sp. BJ001; experiment: Transformation and mineralization of 14C-TNT, 14C-RDX, 14C-HMX by pure cultures of Methylobacterium sp. BJ001 in LB liquid medium (bioreactors, 55 days); conditions: for Bacterial growth (OD600) in the presence of the compound, by comparison to the control bioreactor / Time until the compound disappeared completely / reached non-detectable levels in solution: BJ001 in LB liquid medium, TNT 25, RDX 20, HMX 2.5 mg L^−1
[2] = test system: Methylobacterium sp. BJ001; experiment: Carbon source utilization in minimal liquid medium (biomass dry weight); conditions: 1.0 g L^−1 in minimal liquid medium with NH4NO3
[3] = test system: M. rhodesianum; experiment: Mineralization by members of the genus Methylobacterium on LB medium with succinate, 20 days; conditions: M. rhodesianum biomass in presence of the compound
[4] = test system: BJ001; experiment: as above; conditions: BJ001 biomass in presence of the compound
[5] = test system: M. organophilum; experiment: as above; conditions: M. organophilum biomass in presence of the compound
[6] = test system: M. extorquens; experiment: as above; conditions: M. extorquens biomass in presence of the compound
[7] = test system: Methylobacterium sp. BJ001; experiment: Mineralization by growing cells of Methylobacterium sp. BJ001 in minimal medium with different carbon/nitrogen sources (LB as positive control), 20 days; conditions: bacterial biomass in presence of the compound
[8] = recommended (refs 7, 37); cited from earlier work
[9] = minimal medium with Fructose only
[10] = minimal medium with NH4NO3 only
[11] = minimal medium, no Fructose and no NH4NO3

Row | Structure (SMILES) | Time at which the transient metabolite reached a maximum ([1]; metabolites of 14C-TNT (ADNTs, DNATs) or 14C-RDX (MNX) formed by BJ001 in LB medium) | Bacterial growth (OD600) in the presence of the compound, by comparison to the control bioreactor [1] | Time until the compound disappeared completely / reached non-detectable levels in solution [1] | Growth of BJ001 on the compound as carbon source [2] | Biomass [3] | Biomass [4] | Biomass [5] | Biomass [6] | Biomass ([7]; Control (+) LB medium) | Biomass ([7]; minimal medium with Fructose and NH4NO3) | Biomass [7, 9] | Biomass [7, 10] | Biomass [7, 11] | Water-quality limit [8]
1 | O=NN1CN([N+](=O)[O-])CN([N+](=O)[O-])C1 | 4 days |  |  |  |  |  |  |  |  |  |  |  |  | 
2 | Cc1c([N+](=O)[O-])cc([N+](=O)[O-])cc1[N+](=O)[O-] |  | not significantly affected | less than 10 days | no growth | 1.00 ± 0.04 mg/L | 0.97 ± 0.05 mg/L | 1.13 ± 0.05 mg/L | 1.07 ± 0.08 mg/L | 1.06 ± 0.15 mg/L | 0.97 ± 0.06 mg/L | 0.97 ± 0.13 mg/L | 0.16 ± 0.08 mg/L | 0.19 ± 0.05 mg/L | 
3 | O=[N+]([O-])N1CN([N+](=O)[O-])CN([N+](=O)[O-])CN([N+](=O)[O-])C1 |  | not significantly affected | 40 days | no growth | 0.98 ± 0.08 mg/L | 0.99 ± 0.06 mg/L | 1.19 ± 0.10 mg/L | 1.12 ± 0.06 mg/L |  |  |  | 0.09 ± 0.04 mg/L | 0.16 ± 0.06 mg/L | 
4 | O=[N+]([O-])N1CN([N+](=O)[O-])CN([N+](=O)[O-])C1 |  | not significantly affected | 40 days | no growth | 0.95 ± 0.15 mg/L | 0.98 ± 0.11 mg/L | 1.23 ± 0.07 mg/L |  |  |  | 0.74 ± 0.16 mg/L | 0.11 ± 0.02 mg/L | 0.14 ± 0.08 mg/L | 105 µg/L
